This series is described as follows: Blood levels in mice after intramuscular administration. To be noted: 20 mg/kg i.m., mice (compiled table).

This passage reports T1/2 results from patent US4746736A, “Carbapenem antibiotics” (priority 1986, dated 1988).

Consider “3-[4-(N,N-dimethyl-1,2,3-triazolium)methylthio]-6α-[1-(R)-hydroxyethyl]-7-oxo-1-azabicyclo(3.2.0)hept-2-ene-2-carboxylate [Example 15 "B"]”, for which the T1/2 stood at 10 min.
